Apparent affinities of Ab-14 variants for a coronavirus HR2 peptide

The measurements come from Engelhart et al. 2022 (doi:10.1038/s41597-022-01779-4) through the FLAb antibody collection.

Target peptide (SARS-CoV-2 spike, HR2 region): PDVDLGDISGINAS

Parent: Ab-14, a human scFv built as VH, a (GGGGS)3 linker, VL. Only the CDRs of the light chain vary.
VH: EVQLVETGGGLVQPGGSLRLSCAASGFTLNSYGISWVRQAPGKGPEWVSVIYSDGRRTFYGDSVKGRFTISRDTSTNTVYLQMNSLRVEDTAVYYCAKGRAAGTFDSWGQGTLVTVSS
VL: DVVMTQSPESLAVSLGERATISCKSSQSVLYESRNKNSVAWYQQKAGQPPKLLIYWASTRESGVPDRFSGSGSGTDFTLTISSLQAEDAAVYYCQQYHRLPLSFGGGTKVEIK

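Phage display of a naive human antibody library on the peptide gave the parent. Variants in AAYL50 differ from the parent at up to three CDR positions; double and triple changes were sampled at random. AlphaSeq pools MATa yeast showing the antibodies with MATalpha yeast showing the peptide. Binding brings cells together so that they mate, and sequencing counts the barcode pairs among the diploids. The ratio of observed to expected reads was calibrated, replicate by replicate, on BCL2-family standards whose Kd was known from biolayer interferometry. There are three technical replicates.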

Changes read parent residue, position, new residue, counted from the first residue of the VL shown.
This list gathers variants with a substitution at K36 (VL, numbered from residue 1).
Values are apparent Kd, the geometric mean of the replicates that gave a signal; lower means stronger binding.
An entry "nd" has no value in the source: the pair was not observed among the diploids in any replicate. This suggests poor binding but is not conclusive.

The variant S26R K36M A40D showed 11 µM (3 of 3 replicates). The variant V29W K36A L100Y showed 130 nM (2 of 3 replicates). With V29M K36V S58I the result was 56 nM (3 of 3 replicates). The variant K36V N37S Y97Q showed 140 nM (3 of 3 replicates). With K36I E61I the result was 17 nM (3 of 3 replicates).

The variant K36M Q95R gave 5.3 µM (1 of 3 replicates). With R34Q K36V R60Y the result was nd (0 of 3 replicates). The variant S25Y N35C K36F gave 64 nM (3 of 3 replicates). With K36T N37T R60W the result was 44 nM (3 of 3 replicates). The variant S26W Q27T K36S showed 53 nM (3 of 3 replicates).

For K36S R99N L102V, the assay gave 2.7 µM (3 of 3 replicates). The variant S25V K36L gave 1.4 nM (3 of 3 replicates). For S25F K36E, the assay gave 650 pM (3 of 3 replicates). With R34K K36H L100P the result was nd (0 of 3 replicates). For K36H S62W, the assay gave 90 nM (3 of 3 replicates).

For R34Y K36T A40W, the assay gave nd (0 of 3 replicates). With E32P K36W the result was 7.6 nM (3 of 3 replicates). For Q27Y K36S R60L, the assay gave 40 nM (3 of 3 replicates). For K36G S38P T59P, the assay gave 20 µM (2 of 3 replicates). With R34M K36L T59S the result was 14 nM (3 of 3 replicates).

For K36M N37K R99Y, the assay gave 18 µM (3 of 3 replicates). The variant K36V A40G Q95R gave nd (0 of 3 replicates). The variant Y31F K36I Y97M gave 35 µM (3 of 3 replicates). The variant K36V T59R L102M gave 60 µM (2 of 3 replicates). The variant E32V S33Q K36A showed 3.9 µM (1 of 3 replicates).

For L30T K36P V39M, the assay gave 32 nM (3 of 3 replicates). The variant K36G Q95E H98L showed nd (0 of 3 replicates). For Q27P K36M T59G, the assay gave 4.4 µM (1 of 3 replicates). The variant K36T L102C showed 5.5 nM (3 of 3 replicates). For K36L S38V R99C, the assay gave nd (0 of 3 replicates).

With K36E Y97G R99T the result was 8.1 nM (3 of 3 replicates). The variant K36I T59C S103K showed 270 nM (3 of 3 replicates). The variant K36H Q96E showed 100 nM (3 of 3 replicates). For S28Y K36V H98C, the assay gave nd (0 of 3 replicates). The variant Q27A K36Q V39C gave 71 µM (2 of 3 replicates).

With Q27G L30C K36M the result was 140 nM (3 of 3 replicates). With K24W V29N K36N the result was 450 nM (3 of 3 replicates). The variant K36Q T59A S62D showed 4.1 nM (3 of 3 replicates). The variant S25A K36W R60A gave 460 nM (3 of 3 replicates). The variant K36R L100H P101G showed 6.0 nM (3 of 3 replicates).

For S28M V29Y K36R, the assay gave 14 nM (3 of 3 replicates). With K36N S58T S62Q the result was 4.3 nM (3 of 3 replicates). For E32N K36N Q96T, the assay gave 140 µM (2 of 3 replicates). With K36T A40V R99I the result was nd (0 of 3 replicates). For K36M Y97M H98S, the assay gave 29 nM (3 of 3 replicates).

The variant L30F K36H T59Q showed 7.5 nM (3 of 3 replicates).

The closing 7 entries, repeated:

{"changes": "K36R L100H P101G", "apparent Kd": "6.0 nM", "seen in": "3/3"}
{"changes": "S28M V29Y K36R", "apparent Kd": "14 nM", "seen in": "3/3"}
{"changes": "K36N S58T S62Q", "apparent Kd": "4.3 nM", "seen in": "3/3"}
{"changes": "E32N K36N Q96T", "apparent Kd": "140 µM", "seen in": "2/3"}
{"changes": "K36T A40V R99I", "apparent Kd": "nd", "seen in": "0/3"}
{"changes": "K36M Y97M H98S", "apparent Kd": "29 nM", "seen in": "3/3"}
{"changes": "L30F K36H T59Q", "apparent Kd": "7.5 nM", "seen in": "3/3"}

Three control strains display no target. For library AAYL50, 18% of the pairings with them gave a signal, with a median of 15 µM and one signal in twenty below 970 nM, so weak values seen in few replicates may be background.